Reference: publication PMC5116011 (The Journal of antibiotics, 2016)
Where two headings read alike, the source gives them in different places.

What was measured:
E. coli BW25113 = test: MIC, microbroth dilution in Mueller-Hinton broth; assay type: cell-based; details: Escherichia coli, BW25113, read-out: MIC EC, E. coli BW25113; Mueller-Hinton broth (Table 2)
P. aeruginosa PA01 = test: MIC, microbroth dilution in Mueller-Hinton broth; assay type: cell-based; details: Pseudomonas aeruginosa

Measured: MIC

CCN1CCN(C(=O)N[C@@H](C(=O)N[C@@H]2C(=O)N3[C@@H]2SC(C)(C)[C@@H]3C(=O)O)c2ccccc2)C(=O)C1=O [piperacillin, reference compound]
6.25 µg/mL: E. coli BW25113 | P. aeruginosa PA01; PA01, read-out: MIC PA | P. aeruginosa PA01; PA01, read-out: MIC PA −
